ChEMBL document CHEMBL6087474, “Discovery of an Efficacious RET PROTAC Degrader with Enhanced Antiproliferative Activity against Resistant Cancer Cells Harboring RET Solvent-Front Mutations” (J Med Chem, 2025)

Assays:
Assay type in all cases: cell-based
[1] = system: BaF3; test: PROTAC activity at CRBN/KIF5B-RET (unknown origin) expressed in mouse BaF3 cells assessed as induction of RET degradation by measuring fold change at 100 nM measured after 6 hrs by Western blot analysis; settings: Homo sapiens
[2] = system: BaF3; test: PROTAC activity at CRBN/KIF5B-RET (unknown origin) expressed in mouse BaF3 cells assessed as induction of RET degradation by measuring fold change at 1000 nM measured after 6 hrs by Western blot analysis
[3] = system: BaF3; test: PROTAC activity at CRBN/KIF5B-RET (unknown origin) expressed in mouse BaF3 cells assessed as induction of RET degradation by measuring fold change at 10 nM measured after 6 hrs by Western blot analysis; settings: Homo sapiens

With `COc1ccc(CN2C3CC2CN(c2ccc(-c4cc(-c5cnn(C6CCN(CCCCCC#Cc7cccc8c7CN(C7CCC(=O)N(C)C7=O)C8=O)CC6)c5)cn5ncc(C#N)c45)cn2)C3)cn1` (stereo not drawn) the fold change (FC) [1] was 1, the fold change (FC) [2] was 0.9 and the fold change (FC) [3] was 1.
